In PubChem BioAssay AID602168 (The Scripps Research Institute Molecular Screening Center, 2012):
Active and inactive are the calls of the source. No rule for the calls is given here.

Chains of the proteins cited; added tags and fusions are not shown. Lines headed by an entry give the natural chain unless they say otherwise; changes in a name come on top.
UniProt Q15788: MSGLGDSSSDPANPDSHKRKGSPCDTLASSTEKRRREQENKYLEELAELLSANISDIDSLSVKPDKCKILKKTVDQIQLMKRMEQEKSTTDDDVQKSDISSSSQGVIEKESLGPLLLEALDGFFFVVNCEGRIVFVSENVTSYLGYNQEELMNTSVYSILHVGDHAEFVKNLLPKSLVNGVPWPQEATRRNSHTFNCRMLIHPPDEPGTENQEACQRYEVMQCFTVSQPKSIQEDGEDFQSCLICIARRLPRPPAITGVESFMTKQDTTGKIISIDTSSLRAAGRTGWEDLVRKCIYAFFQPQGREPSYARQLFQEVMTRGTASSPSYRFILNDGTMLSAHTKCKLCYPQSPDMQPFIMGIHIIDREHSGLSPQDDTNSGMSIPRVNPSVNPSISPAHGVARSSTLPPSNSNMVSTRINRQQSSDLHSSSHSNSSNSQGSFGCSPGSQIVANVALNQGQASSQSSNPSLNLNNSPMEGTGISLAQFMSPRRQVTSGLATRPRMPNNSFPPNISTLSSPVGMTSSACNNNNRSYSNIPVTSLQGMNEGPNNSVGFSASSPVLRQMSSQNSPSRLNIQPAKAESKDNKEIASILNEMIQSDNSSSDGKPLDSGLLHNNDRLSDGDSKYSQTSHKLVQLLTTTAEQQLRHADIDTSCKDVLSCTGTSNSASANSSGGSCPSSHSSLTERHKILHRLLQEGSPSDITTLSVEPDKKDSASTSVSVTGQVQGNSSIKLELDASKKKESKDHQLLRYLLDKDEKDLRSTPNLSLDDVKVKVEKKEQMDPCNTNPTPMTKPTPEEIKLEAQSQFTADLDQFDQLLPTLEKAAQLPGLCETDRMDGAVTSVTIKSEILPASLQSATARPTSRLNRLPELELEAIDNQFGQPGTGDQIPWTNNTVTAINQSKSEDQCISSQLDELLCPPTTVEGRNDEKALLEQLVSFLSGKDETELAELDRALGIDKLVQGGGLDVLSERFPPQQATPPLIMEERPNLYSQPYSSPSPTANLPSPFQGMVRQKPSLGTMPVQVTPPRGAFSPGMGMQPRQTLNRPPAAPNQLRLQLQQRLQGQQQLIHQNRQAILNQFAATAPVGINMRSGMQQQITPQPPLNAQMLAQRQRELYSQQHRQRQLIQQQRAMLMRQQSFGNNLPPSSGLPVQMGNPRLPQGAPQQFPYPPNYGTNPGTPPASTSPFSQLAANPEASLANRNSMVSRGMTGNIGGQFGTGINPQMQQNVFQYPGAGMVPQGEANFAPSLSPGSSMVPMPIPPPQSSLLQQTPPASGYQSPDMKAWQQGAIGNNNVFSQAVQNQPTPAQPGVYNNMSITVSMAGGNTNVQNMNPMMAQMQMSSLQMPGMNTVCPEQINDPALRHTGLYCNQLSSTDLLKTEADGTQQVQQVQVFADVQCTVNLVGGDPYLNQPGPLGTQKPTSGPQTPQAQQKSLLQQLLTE

Biological target: Nuclear receptor coactivator 1 (Homo sapiens) (UniProt Q15788)
Assay: NCOA1 reporter inhibition potency – cell-based, luminescence, counter-screen for SRC3 inhibitor project, dose response (AID 602168)
Conditions: Cell-based SRC1 luciferase reporter

SMILES: COc1cc([C@@H]2c3cc4c(cc3[C@@H](O[C@@H]3O[C@@H]5CO[C@@H](C)O[C@H]5[C@H](O)[C@H]3O)[C@H]3COC(=O)[C@H]23)OCO4)cc(OC)c1O
- IC50: inactive: > 12 µM
